# Read-outs that look alike come from different tables or passages of the source.
# Sequences of proteins named here, by UniProt entry; tags and fusion partners are left off.
# UniProt Q13976, whole entry: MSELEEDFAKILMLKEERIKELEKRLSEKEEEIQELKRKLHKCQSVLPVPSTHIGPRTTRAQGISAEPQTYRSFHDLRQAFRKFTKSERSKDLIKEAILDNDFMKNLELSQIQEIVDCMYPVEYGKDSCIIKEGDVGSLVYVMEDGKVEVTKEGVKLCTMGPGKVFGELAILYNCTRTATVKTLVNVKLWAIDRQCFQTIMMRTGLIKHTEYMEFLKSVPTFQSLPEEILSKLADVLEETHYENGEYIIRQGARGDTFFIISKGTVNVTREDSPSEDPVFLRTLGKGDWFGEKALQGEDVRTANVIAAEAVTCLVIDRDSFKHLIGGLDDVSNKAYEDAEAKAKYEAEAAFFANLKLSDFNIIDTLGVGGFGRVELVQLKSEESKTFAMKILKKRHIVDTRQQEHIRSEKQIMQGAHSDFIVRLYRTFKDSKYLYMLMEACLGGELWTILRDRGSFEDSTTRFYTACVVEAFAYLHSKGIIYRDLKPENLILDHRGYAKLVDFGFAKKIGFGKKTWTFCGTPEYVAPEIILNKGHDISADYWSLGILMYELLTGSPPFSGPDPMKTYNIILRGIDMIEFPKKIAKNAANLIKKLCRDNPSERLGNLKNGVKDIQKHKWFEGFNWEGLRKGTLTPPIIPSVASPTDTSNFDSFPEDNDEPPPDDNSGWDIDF
# Key:
# PKG = PKG (Homo sapiens, UniProt Q13976); assay: PKG inhibition: transfer of gamma-32P from ATP to peptide substrate
# PKG 1α = PKG 1α (Homo sapiens, UniProt Q13976); assay: PKG 1α activity towards BPDEtide; settings: read-out: IC50 PKG 1α; 30 μM ATP; BPDEtide substrate
# [1] = read-out: Activity: IC50 vrs PKG, Series B, 30 μM ATP
# [2] = read-out: PKG inhibition (IC50), Table 3
# [3] = read-out: PKG inhibition (IC50), Table 4
# [4] = read-out: PKG inhibition (IC50), Table 6
smiles,measurement,setting,value
O=C(NC1CCN(C(=O)c2ccc(O)cc2)C1)c1cc(O)c(C(=O)c2c(O)cccc2C(=O)O)c(O)c1 (stereo not shown),IC50,PKG; [1],≥ 5 µM
same,IC50,PKG; [2],> 5 µM
COCOc1ccc(OC)c(F)c1C(=O)c1ccc(C(=O)O[C@@H]2CCC[C@H]2NC(=O)c2ccc(O)cc2)cc1 (relative stereo),IC50,PKG; [1],8 µM
same,IC50,PKG; [3],8 µM
O=C(N[C@@H]1CNC[C@H]1NC(=O)c1ccc2[nH]ncc2c1)c1ccc2[nH]ncc2c1,IC50,PKG; [4],1 µM
O=C(N[C@@H]1CNC[C@H]1NC(=O)c1ccc2[nH]nc(-c3ccc(F)cc3)c2c1)c1ccc2[nH]nc(-c3ccc(F)cc3)c2c1,IC50,PKG; [4],> 10 µM
O=C(C=CNc1ccc2[nH]ncc2c1)c1ccco1,inhibition of PKG activity,"PKG; 10 μM compound, average of two independent experiments",100%
same,inhibitory activity on PKG (in words),PKG; 1 and 10 micromolar compound (FIGS. 10A-B),significant inhibitory activity
same,IC50,PKG 1α,2 µM
O=C(O)c1cccc(O)c1C(=O)c1c(O)cc(C(=O)N2CCN(C(=O)c3ccc(O)cc3)CC2)cc1O,IC50,PKG; [2],> 10 µM
Cc1n[nH]c2ccc(C(=O)N[C@@H]3CNC[C@H]3NC(=O)c3ccc4[nH]nc(C)c4c3)cc12,IC50,PKG; [4],> 10 µM
COc1ccc2onc(-c3ccc(C(=O)O[C@@H]4CNC[C@H]4NC(=O)c4ccc(O)cc4)cc3)c2c1F (relative stereo),IC50,PKG; [3],> 10 µM
O=C(O)c1cccc(O)c1C(=O)c1c(O)cc(C(=O)N2CCCN(C(=O)c3ccc(O)cc3)CC2)cc1O,IC50,PKG; [2],> 10 µM

# Reference: patent US9402826B2, “Neuronal pain pathway modulators” (The Trustees of Columbia University in the City of New York, priority 2006, dated 2016)
